## Apparent affinities of Ab-14 variants for a coronavirus HR2 peptide

Target peptide (SARS-CoV-2 spike, HR2 region): PDVDLGDISGINAS

Each scFv is VH, three GGGGS repeats, VL, as in the parent Ab-14, and differs from it in the CDRs of the heavy chain only.
VH: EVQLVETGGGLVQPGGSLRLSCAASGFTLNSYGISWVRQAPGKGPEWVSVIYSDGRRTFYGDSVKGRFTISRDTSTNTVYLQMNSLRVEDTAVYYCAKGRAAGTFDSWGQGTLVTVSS
VL: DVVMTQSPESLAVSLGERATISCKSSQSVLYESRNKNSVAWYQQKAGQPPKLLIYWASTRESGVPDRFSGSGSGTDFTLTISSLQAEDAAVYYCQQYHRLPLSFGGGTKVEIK

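The starting antibody came from a phage panning campaign against this peptide. The library (AAYL49) carries one to three amino acid substitutions per variant, with no insertions or deletions. In AlphaSeq, yeast of one mating type display the scFv and yeast of the other type display the target. Pairs that bind mate more often; barcode pairs of the diploids are counted by sequencing. Each replicate has its own calibration line, from reference interactions of the BCL2 family. There are three technical replicates.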

Each variant's VH is given in full.
All variants listed here change G103 of the VH, counted from its first residue.
The read-out is the apparent dissociation constant on a log10 scale (nM): the lower, the stronger.
An entry "ND" has no value in the source: the pair was not observed among the diploids in that replicate. This suggests poor binding but is not conclusive.

| VH | log10 Kd (nM) by replicate |
|---|---|
| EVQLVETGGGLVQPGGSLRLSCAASGFTLNSYGISWVRQAPGKGPEWVSVIYSDDRRTFYGDSSKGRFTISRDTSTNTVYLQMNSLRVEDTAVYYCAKGRAAMTFDSWGQGTLVTVSS | ND ND ND |
| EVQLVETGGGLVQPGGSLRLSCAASGFTLNSYGISWVRQAPGKGPEWVSVIYSDGRRTFYGDSVKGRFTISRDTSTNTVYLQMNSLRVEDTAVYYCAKYRVATTFDSWGQGTLVTVSS | 1.03 1.09 1.13 |
| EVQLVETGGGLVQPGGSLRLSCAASGFTLNSYGKSWVRQAPGKGPEWVSVIYSDGRRTFYGDSVKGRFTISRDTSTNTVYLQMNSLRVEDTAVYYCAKGRAAETFDSWGQGTLVTVSS | ND ND 2.80 |
| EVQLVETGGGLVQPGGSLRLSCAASGFTLNSYRISWVRQAPGKGPEWVSKIYSDGRRTFYGDSVKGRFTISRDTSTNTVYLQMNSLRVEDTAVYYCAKGRAAFTFDSWGQGTLVTVSS | ND ND ND |
| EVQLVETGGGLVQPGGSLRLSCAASGFTLNCYGISWVRQAPGKGPEWVSVDYSDGRRTFYGDSVKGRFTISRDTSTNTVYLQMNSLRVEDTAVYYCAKGRAAYTFDSWGQGTLVTVSS | ND ND ND |
| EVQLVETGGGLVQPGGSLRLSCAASGSTLNSYGISWVRQAPGKGPEWVSVWYSDGRRTFYGDSVKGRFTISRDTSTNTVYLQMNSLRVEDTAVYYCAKGRAAMTFDSWGQGTLVTVSS | ND ND ND |
| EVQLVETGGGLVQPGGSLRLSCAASGFTLNSYGISWVRQAPGKGPEWVSVIYSDGRRTFYGDSVKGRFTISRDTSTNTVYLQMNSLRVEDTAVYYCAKGDAAYTFQSWGQGTLVTVSS | 1.07 1.31 1.58 |
| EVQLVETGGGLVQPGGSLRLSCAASGFTLNSYGISWVRQAPGKGPEWVSVIYSDGRRTFYGDQVKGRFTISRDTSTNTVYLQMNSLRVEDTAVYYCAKGRQAHTFDSWGQGTLVTVSS | ND 3.69 ND |
| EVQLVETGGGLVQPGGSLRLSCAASGFTLNSYGISWVRQAPGKGPEWVSEIYSDGRRTFYGDSVKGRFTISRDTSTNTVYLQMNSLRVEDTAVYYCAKGRAAFTFDSWGQGTLVTVSS | ND 3.63 ND |
| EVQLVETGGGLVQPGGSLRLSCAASIFTLNSYGISWVRQAPGKGPEWVSVIYSDGRRTFYGDSVKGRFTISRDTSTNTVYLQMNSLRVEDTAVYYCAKGRAASTFDSWGQGTLVTVSS | ND ND ND |
| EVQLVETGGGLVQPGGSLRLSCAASGFTLNSYNISWVRQAPGKGPEWVSVIYSDGRRTFYGDSCKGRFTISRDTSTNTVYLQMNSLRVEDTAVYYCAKGRAACTFDSWGQGTLVTVSS | 4.94 5.69 5.01 |
| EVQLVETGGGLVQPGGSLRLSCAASGFEPNSYGISWVRQAPGKGPEWVSVIYSDGRRTFYGDSVKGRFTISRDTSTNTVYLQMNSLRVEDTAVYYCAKGRAATTFDSWGQGTLVTVSS | ND 3.67 ND |
| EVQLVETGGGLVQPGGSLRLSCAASGFELNIYGISWVRQAPGKGPEWVSVIYSDGRRTFYGDSVKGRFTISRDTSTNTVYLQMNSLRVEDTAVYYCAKGRAANTFDSWGQGTLVTVSS | 4.71 3.66 5.12 |
| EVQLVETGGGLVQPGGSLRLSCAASGFTLNSYGISWVRQAPGKGPEWVSHIYSDGRRTFYGDSVKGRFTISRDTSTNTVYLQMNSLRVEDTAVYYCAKGRAATAFDSWGQGTLVTVSS | ND 4.38 4.08 |
| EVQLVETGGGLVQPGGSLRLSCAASGFTLNSYGISWVRQAPGKGPEWVSVIYSDGRRTFYGDSVKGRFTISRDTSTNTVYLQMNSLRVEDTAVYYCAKGNAAETFDCWGQGTLVTVSS | 4.32 ND ND |
| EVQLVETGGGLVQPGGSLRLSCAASGFTLNSYGISWVRQAPGKGPEWVSVIYSDGRNTFYGDSVKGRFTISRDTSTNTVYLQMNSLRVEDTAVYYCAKGRAAPTFDMWGQGTLVTVSS | ND ND ND |
| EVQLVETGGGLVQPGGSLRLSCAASVFTLNSYGISWVRQAPGKGPEWVSVIYSDGRRTPYGDSVKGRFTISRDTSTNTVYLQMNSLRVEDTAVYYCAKGRAAWTFDSWGQGTLVTVSS | ND ND ND |
| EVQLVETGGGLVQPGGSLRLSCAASGFTLNSLGESWVRQAPGKGPEWVSVIYSDGRRTFYGDSVKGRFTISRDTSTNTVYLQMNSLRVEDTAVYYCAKGRAAFTFDSWGQGTLVTVSS | ND ND 3.63 |
| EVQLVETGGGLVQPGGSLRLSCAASGFTLNSYGISWVRQAPGKGPEWVSVIYSDGPSTFYGDSVKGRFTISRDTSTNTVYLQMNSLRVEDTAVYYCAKGRAAFTFDSWGQGTLVTVSS | ND ND 5.34 |

From the list, the first 2 with no signal in any replicate:

VH	log10 Kd (nM) by replicate
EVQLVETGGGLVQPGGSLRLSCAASGFTLNSYGISWVRQAPGKGPEWVSVIYSDDRRTFYGDSSKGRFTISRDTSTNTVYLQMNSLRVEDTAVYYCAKGRAAMTFDSWGQGTLVTVSS	ND ND ND
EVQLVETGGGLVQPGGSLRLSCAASGFTLNSYRISWVRQAPGKGPEWVSKIYSDGRRTFYGDSVKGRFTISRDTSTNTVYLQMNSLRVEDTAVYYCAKGRAAFTFDSWGQGTLVTVSS	ND ND ND

For reference, the parent read 0.65 as the reference entry and 4.11 (one replicate of three) as a member of this library.
Three control strains display no target. For library AAYL49, 15% of the pairings with them gave a signal, with a median of 4.06 and one signal in twenty below 2.83, so weak values seen in few replicates may be background.

From the AlphaSeq antibody data of Engelhart et al. 2022 (doi:10.1038/s41597-022-01779-4), copy in the FLAb collection.